In one test the target is T1, μ receptor (Rattus norvegicus, UniProt P33535).
T1 construct: frozen rat brains (−80° C.) were homogenized in 40 volumes of standard Tris buffer; from tissue; host or cells: rat brain (crude plasma membranes)
Put plainly: μ receptor binding assay, [3H]DAMGO competition, crude rat brain plasma membranes. The following applies: rat brain homogenate, 1.85 nM [3H]DAMGO, 4° C., 90 minutes; FIG. 3.

Amino acid sequences for entries named in this document (tags omitted).
UniProt P33535, whole entry: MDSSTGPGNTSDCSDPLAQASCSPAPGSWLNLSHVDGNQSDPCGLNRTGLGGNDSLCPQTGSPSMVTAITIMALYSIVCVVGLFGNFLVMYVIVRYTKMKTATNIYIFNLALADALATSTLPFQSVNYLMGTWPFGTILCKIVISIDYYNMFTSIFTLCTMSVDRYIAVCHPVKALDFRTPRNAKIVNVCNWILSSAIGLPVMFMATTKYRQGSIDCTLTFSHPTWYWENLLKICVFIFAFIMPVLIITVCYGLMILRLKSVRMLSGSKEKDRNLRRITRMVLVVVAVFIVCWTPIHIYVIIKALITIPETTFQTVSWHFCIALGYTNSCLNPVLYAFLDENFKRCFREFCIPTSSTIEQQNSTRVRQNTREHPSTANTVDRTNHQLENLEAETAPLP
UniProt P14600, whole entry: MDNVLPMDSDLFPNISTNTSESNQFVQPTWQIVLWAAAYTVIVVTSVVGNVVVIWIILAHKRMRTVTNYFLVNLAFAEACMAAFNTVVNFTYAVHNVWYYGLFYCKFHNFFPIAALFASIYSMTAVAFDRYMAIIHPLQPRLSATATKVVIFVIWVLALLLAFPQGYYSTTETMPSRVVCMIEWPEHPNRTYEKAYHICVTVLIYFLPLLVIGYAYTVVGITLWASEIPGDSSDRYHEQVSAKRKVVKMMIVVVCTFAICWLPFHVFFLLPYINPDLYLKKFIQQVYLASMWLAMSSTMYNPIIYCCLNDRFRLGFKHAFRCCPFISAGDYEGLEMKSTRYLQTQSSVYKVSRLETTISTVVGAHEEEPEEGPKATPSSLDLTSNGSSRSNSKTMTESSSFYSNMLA

The next test deals with T2, NK1 receptor (Rattus norvegicus, UniProt P14600).
T2 construct: The same procedure was followed for the SP receptor except the wash with NaCl was eliminated; from tissue; host or cells: rat brain (crude plasma membranes)
Description: SP (NK1) receptor binding assay, [125I]BH-SP competition, crude rat brain plasma membranes.

Molecules are shown by their SMILES.

Broadly, the Kd is the concentration at which binding is half-saturated. On μ receptor, `C[C@@H](NC(=O)[C@@H](N)Cc1ccc(O)cc1)C(=O)NCC(=O)N(C)[C@@H](Cc1ccccc1)C(=O)NCCO` [DAMGO, Tyr-(D)Ala-Gly-Phe-NHCH2CH2OH] yielded a Kd of around 3 nM.

`CSCC[C@H](NC(=O)[C@H](CC(C)C)NC(=O)CNC(=O)[C@H](Cc1ccccc1)NC(=O)[C@H](Cc1ccccc1)NC(=O)[C@H](CCC(N)=O)NC(=O)[C@H](CCC(N)=O)NC(=O)[C@@H]1CCCN1C(=O)[C@H](CCCCN)NC(=O)[C@@H]1CCCN1C(=O)[C@@H](N)CCCN=C(N)N)C(N)=O` [SP] registered a Kd at NK1 receptor of around 0.03 nM.

(Values after patent publication US6759520B1, “Chimeric analgesic peptides” (priority 1999, dated 2004).)
